Test results from patent publication US11642344B2, “Cholesteryl ester transfer protein (CETP) inhibitor and pharmaceutical compositions comprising said inhibitor for use in the treatment or prevention of cardiovascular diseases” (NewAmsterdam Pharma B.V., priority 2014, dated 2023).

The chains behind the UniProt entries cited, without tags or fusion partners. Residues count along the entry.
UniProt P11597, 18-493 limits assumed: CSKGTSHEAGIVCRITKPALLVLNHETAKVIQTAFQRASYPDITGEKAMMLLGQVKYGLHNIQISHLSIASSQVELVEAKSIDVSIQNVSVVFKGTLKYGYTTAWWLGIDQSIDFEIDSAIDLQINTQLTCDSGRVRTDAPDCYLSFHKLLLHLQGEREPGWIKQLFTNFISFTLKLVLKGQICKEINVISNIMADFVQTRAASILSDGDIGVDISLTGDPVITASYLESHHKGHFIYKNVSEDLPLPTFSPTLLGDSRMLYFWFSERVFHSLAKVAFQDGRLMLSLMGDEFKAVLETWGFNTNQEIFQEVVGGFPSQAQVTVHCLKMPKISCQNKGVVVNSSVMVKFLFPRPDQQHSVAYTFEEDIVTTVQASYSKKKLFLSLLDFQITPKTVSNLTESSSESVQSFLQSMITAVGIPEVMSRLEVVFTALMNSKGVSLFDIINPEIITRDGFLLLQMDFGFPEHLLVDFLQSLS

Experiments:
CETP [1] = assay: Ex vivo serum CETP activity after oral administration to hamsters; settings: 3 mg/kg oral, suspension in 0.5% CMC, serum 3 hours after administration
Experimental: Syrian Golden hamsters were used for the experiment after 1-week acclimatization. After an overnight fast, animals were orally given the compound suspension in 0.5% sodium carboxymethylcellulose in a volume of 10 mL/kg. Under deep anesthesia with ether, blood was collected from the abdominal aorta 3 hours after the administration. For preparation of serum, the collected blood was transferred to a plastic tube containing a clot activator, left still for 15 minutes at room temperature and centrifuged. Serum CETP activities were determined immediately.
Ninety-five μL serum were added to 5 μL of […] sodium phosphate buffered saline (pH 7.0) containing 1.5 mM 5,5′-dithio-bis(2-nitrobenzoic acid) in two 96-well V-bottom plates. One plate was incubated at 4° C. and the other was incubated at 37° C. […] Total cholesterol (TC) and free cholesterol (FC) in supernatant were measured using commercial kits (Cholesterol E-test wako, and Free Cholesterol E-test wako; Wako pure chemical). Cholesteryl ester (CE) was calculated by subtracting FC from TC. CETP activity was determined by the following formula: CETP activity=[CETP transfer]*/[CE value in 4° C. incubation sample] *CETP transfer=[CE value in 4° C. incubation sample]−[CE value in 37° C. incubation sample] […]

CETP [2] = target: CETP (Homo sapiens, UniProt P11597); assay: In vitro CETP assay: 3H-labeled CE transfer from HDL to VLDL/LDL in human plasma; settings: read-out: in vitro IC50 (μM) human plasma (24 h pre-incubation), 24 h pre-incubation at 37° C.
Experimental: Human blood was obtained from healthy male volunteers using 0.1% EDTA as an anticoagulant, and centrifuged at 3,000 rpm for 15 minutes at 4° C. Human plasma was pooled, and then used for the preparation of ^3H-labeled HDL or stored at −80° C. for CETP assay until use. The ^3H-labeled HDL was prepared with human plasma as described by Glenn and Melton (Methods in enzymology. 263; 339-351, 1996). The specific gravity of plasma was measured by a hydrometer, and the density was adjusted to 1.125 g/mL by adding solid KBr. After centrifugation at 100,000 rpm for 4 hours at 12° C. (rotor: 100.4, Optima TLX, Beckman), d>1.125 g/mL fraction was dialyzed against 4 L of Tris-saline-EDTA buffer (TSE; 50 mmol/L Tris, 150 mmol/L NaCl, 2 mmol/L EDTA, pH7.4) for 18 hours at 4° C. […] The radioactivity of ^3H-labeled HDL was counted in a liquid scintillation counter. ^3H-labeled HDL was stored at 4° C. until use.
CETP activity was determined as the rate of ^3H-labeled CE transfer from donor HDL to acceptor VLDL/LDL. […] After centrifugation at 3,000 rpm for 10 minutes at room temperature, the radioactivity of the supernatant was counted in a liquid scintillation counter. CETP activity was determined as the difference of the radioactivity between the samples incubated at 37° C. and 4° C. as follows: % inhibition=100−{dpm (DMSO at 4° C.−test compounds at 37° C.)/dpm (DMSO at 4° C.−DMSO at 37° C.)}×100. […]

CC[C@@H]1C[C@H](N(Cc2cc(C(F)(F)F)cc(C(F)(F)F)c2)c2ncc(OCCCC(=O)O)cn2)c2cc(C(F)(F)F)ccc2N1C(=O)OCCCOC(C)=O
ex vivo (% inhibition) 3 mg/kg (CMC) (CETP [1]): 25.4% | IC50 (CETP [2]): 0.11 µM
